scFv variants of Ab-14 (light chain) against a SARS-CoV-2 spike peptide

Values reported by Engelhart et al. 2022, doi:10.1038/s41597-022-01779-4 (FLAb copy).

Target: peptide PDVDLGDISGINAS, taken from heptad repeat 2 (HR2) of SARS-CoV-2 spike.

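AAYL50 was designed without a model: most single CDR substitutions and a random sample of double and triple ones. In AlphaSeq, yeast of one mating type display the scFv and yeast of the other type display the target. The frequency of each diploid, read from paired DNA barcodes, reflects how well the two displayed proteins bind. Scores were corrected for input abundance and mapped to Kd with protein pairs of known affinity run in the same pool. The assay was run in three technical replicates.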

Ab-14 is the parent antibody, in scFv form: VH, then the linker GGGGSGGGGSGGGGS, then VL. The heavy chain is unchanged in all variants.
VH: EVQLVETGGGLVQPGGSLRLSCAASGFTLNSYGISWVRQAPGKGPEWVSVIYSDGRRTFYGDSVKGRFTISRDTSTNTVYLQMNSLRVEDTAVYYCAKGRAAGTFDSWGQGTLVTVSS
VL: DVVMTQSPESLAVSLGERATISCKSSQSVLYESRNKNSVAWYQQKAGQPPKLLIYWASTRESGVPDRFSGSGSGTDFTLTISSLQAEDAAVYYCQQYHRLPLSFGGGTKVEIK

Changes read parent residue, position, new residue, counted from the first residue of the VL shown. This list gathers variants with a substitution at Y97 (VL, numbered from residue 1). The Kd shown is the geometric mean over detected replicates; a lower Kd is a better binder. "nd" means that the variant was in the library but no mating with the target was seen in any replicate; the authors take this as a sign of poor binding, and no number exists. In this assay the parent's reference entry averaged 4.4 nM; its copy inside this library read 48 nM.

The variant S25W+E32M+Y97A showed 880 nM (3 of 3 replicates). The variant S26Y+V39A+Y97Q gave 48 µM (2 of 3 replicates). For A57C+Y97Q+P101N, the assay gave 4.4 µM (3 of 3 replicates). The variant W56T+Q96D+Y97H showed nd (0 of 3 replicates). For V39P+E61N+Y97N, the assay gave 6.5 µM (1 of 3 replicates). For L30T+N37A+Y97L, the assay gave 11 nM (3 of 3 replicates). With S26C+R60N+Y97T the result was 8.9 mM (1 of 3 replicates). For A40V+S58N+Y97G, the assay gave nd (0 of 3 replicates).

With A57T+T59S+Y97A the result was 400 nM (2 of 3 replicates). The variant S28E+V39T+Y97N showed 10 µM (1 of 3 replicates). The variant E32M+K36T+Y97G gave nd (0 of 3 replicates). For V39Q+Q95K+Y97E, the assay gave 640 nM (1 of 3 replicates). With A40W+Y97F+P101E the result was 590 µM (1 of 3 replicates). For E32T+Y97G+P101S, the assay gave 21 µM (2 of 3 replicates). The variant Y97L+P101A showed 98 nM (3 of 3 replicates). The variant K24V+N35P+Y97A showed 160 nM (3 of 3 replicates).

The variant S25F+Y97A+L100P showed 52 µM (3 of 3 replicates). For S33D+K36D+Y97A, the assay gave 60 µM (1 of 3 replicates). With R34S+A40Y+Y97E the result was nd (0 of 3 replicates). The variant V29A+S58N+Y97A showed nd (0 of 3 replicates). The variant Y97Q+S103N gave nd (0 of 3 replicates). The variant L30H+N37D+Y97E showed nd (0 of 3 replicates). For V29M+S62H+Y97C, the assay gave 68 µM (2 of 3 replicates). For S26P+Y97A+L102V, the assay gave 210 µM (1 of 3 replicates).

With R60N+Y97K+P101T the result was 31 µM (3 of 3 replicates). The variant S28Q+Y97L+H98M gave nd (0 of 3 replicates). With S33M+S38P+Y97A the result was 8.7 µM (3 of 3 replicates). The variant S28W+Y31L+Y97T gave 33 µM (1 of 3 replicates). For R60E+Y97E, the assay gave nd (0 of 3 replicates). For L30S+S62H+Y97A, the assay gave nd (0 of 3 replicates). For Y97A+R99F+L102E, the assay gave nd (0 of 3 replicates). The variant V29Q+S58A+Y97F showed 27 nM (3 of 3 replicates).

For R34G+S38G+Y97R, the assay gave nd (0 of 3 replicates). The variant L30E+T59H+Y97M showed 52 µM (2 of 3 replicates). The variant E32S+A57S+Y97F gave 280 nM (3 of 3 replicates). The variant V29I+Y97Q+P101I showed 11 nM (3 of 3 replicates). The variant V29R+E61V+Y97C showed nd (0 of 3 replicates). The variant R34N+N35M+Y97V gave nd (0 of 3 replicates). The variant V39E+Y97P gave nd (0 of 3 replicates). With V29N+S62H+Y97V the result was 470 nM (3 of 3 replicates).

With W56V+A57G+Y97T the result was nd (0 of 3 replicates). For K24I+Y97E+L102E, the assay gave nd (0 of 3 replicates). With A57M+Y97A the result was nd (0 of 3 replicates). The variant S28K+A57V+Y97Q gave 480 nM (2 of 3 replicates). With S26A+A57Q+Y97A the result was 43 µM (2 of 3 replicates). The variant T59Q+Q95Y+Y97H gave 620 nM (3 of 3 replicates). The variant W56M+Q96V+Y97A gave 42 nM (3 of 3 replicates). With S38F+Y97I+R99I the result was 240 µM (1 of 3 replicates).

For S33K+A40H+Y97R, the assay gave 7.4 µM (2 of 3 replicates). The variant S62W+Y97S+R99G gave 110 µM (2 of 3 replicates).

Excerpt, the final 7 entries:

For S28K+A57V+Y97Q, the assay gave 480 nM (2 of 3 replicates).
For S26A+A57Q+Y97A, the assay gave 43 µM (2 of 3 replicates).
For T59Q+Q95Y+Y97H, the assay gave 620 nM (3 of 3 replicates).
For W56M+Q96V+Y97A, the assay gave 42 nM (3 of 3 replicates).
For S38F+Y97I+R99I, the assay gave 240 µM (1 of 3 replicates).
For S33K+A40H+Y97R, the assay gave 7.4 µM (2 of 3 replicates).
For S62W+Y97S+R99G, the assay gave 110 µM (2 of 3 replicates).

Three control strains display no target. For library AAYL50, 18% of the pairings with them gave a signal, with a median of 15 µM and one signal in twenty below 970 nM, so weak values seen in few replicates may be background.